Experimental data from ChEMBL document CHEMBL4342405, “Clinical candidates modulating protein-protein interactions: The fragment-based experience” (Eur J Med Chem, 2019).

Protein sequences, listed by entry. Tags and fused reporters are not part of them.
UniProt P10415, whole entry: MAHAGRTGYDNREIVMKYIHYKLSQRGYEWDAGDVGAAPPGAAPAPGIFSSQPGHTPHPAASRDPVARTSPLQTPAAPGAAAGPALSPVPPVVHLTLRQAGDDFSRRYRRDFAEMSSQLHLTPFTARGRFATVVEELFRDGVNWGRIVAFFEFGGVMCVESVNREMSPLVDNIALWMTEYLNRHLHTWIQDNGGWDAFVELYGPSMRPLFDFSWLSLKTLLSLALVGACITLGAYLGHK

Biological target: Apoptosis regulator Bcl-2 (Homo sapiens, UniProt P10415)
Assay: Inhibition of BCL-2 (unknown origin) by fluorescence polarization assay

Compound: CC1(C)CCC(c2ccc(Cl)cc2)=C(CN2CCN(c3ccc(C(=O)NS(=O)(=O)c4ccc(N[C@H](CCN5CCOCC5)CSc5ccccc5)c(S(=O)(=O)C(F)(F)F)c4)cc3)CC2)C1 [NAVITOCLAX]
- Ki: < 0.01 nM
